PDI inh – inhibitors of human PDI, primary screen, biochemical, turbidity, single point, plate reader; Protein disulfide-isomerase (Homo sapiens), P07237; PDI insulin aggregation turbidity, A650, 90 min; inhibition, % at 10 µM; 0.052% of 350,000 active;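 active means mean inhibition across replicates of 30% or more, whatever share of single replicates reach that level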
SMARCA2 activ – SMARCA2 (BRM) function activators, primary screen, cell-based, luminescence, high throughput. MG213 cells, MMTV-luciferase reporter, dexamethasone, overnight. activation, % at 9.1 µM. 1% of 370,000 active; in the data active means activation above about 7.8%
ERp5 block – inhibitors of ERp5-driven insulin aggregation, primary screen, biochemical, turbidity, absorbance 650 nm, single point. Protein disulfide-isomerase A6 (Homo sapiens), Q15084. 0.05% of 350,000 active. AID 651711, 2012. inhibition, % at 9.99 µM. 90 min;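 active means mean replicate inhibition above about 25%, with every replicate also reaching it, limit read from the data, passing the limit was not always enough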
GSIS activator – GLuc luminescence reporter in INS-1E cells, primary screen for activators of glucose-dependent secretion of insulin. INS-1E GLuc reporter insulin secretion, 2-3 h. activation, % at 16.6 µM. 0.61% of 370,000 active. AID 743287, 2014;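 active means lowest replicate activation of at least 40%, so every replicate reaches that level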
Yeast UUG start – alters start codon recognition fidelity in yeast. S. cerevisiae UUG-firefly luciferase reporter, luminescence/redox ratio. AID 602363. activity score, % at 18.7 µM. hit rate 0.13% among 350,000;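 active = replicate mean at a twofold rise or more, about +100% in these data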;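 note: firefly luciferase made from a UUG start codon reports start codon fidelity; reporter light over untreated wells divided by growth signal over untreated wells; some hits fall short of that in this replicate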
Rev-erbA mod – modulators of Rev-erb alpha DNA binding, primary screen, biochemical, FITC-DNA, fluorescence polarization, uHTS. 0.79% of 370,000 active. Nuclear receptor subfamily 1 group D member 1 (Homo sapiens), P20393. Rev-erbα–FITC-DNA binding, 90 min. activity, % at 10 µM. AID 1259318, 2017;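 active means activity above about 14%, limit read from the data; passing the limit was not always enough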
Rev-erbA confirm – modulators of Rev-erb alpha DNA binding, confirmation, biochemical, FITC-DNA, fluorescence polarization, single point; shares compounds with Rev-erbA mod; 90 min; activation, % at 25 µM; 61% of 3,000 active; AID 1259319, 2017;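 active means activation at or above a set limit, or at least 3 SD above the negative control mean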
RORg DNA counter – modulation of RORgamma DNA binding, dose response, counter-screen for Rev-erb alpha modulator project, biochemical, fluorescence polarization, FITC-DNA; shares compounds with Rev-erbA mod; purified RORgamma protein-FITC-DNA binding; IC50, µM; 8% of 910 active; AID 1259320, 2017;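 active means Compounds whose fitted half-maximal concentration for disrupting protein-DNA binding is below 10 micromolar; the record names Rev-erb in its text, so the target is in doubt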
Of the large screens only hits and unclear results are named; the others gave an inactive call (follow-up assays come after a bar, where they were run). Compounds with a hit are over-represented: about 2.1% of the library has one in this group of screens.

CCC(=O)Nc1ccc(NC(=O)CSc2nc3cc4c(cc3cc2C)CCC4)cc1	none (no result: ERp5 block, GSIS activator)
Fc1ccc2nc(Nc3nc4c(F)cc(F)cc4s3)sc2c1	Rev-erbA mod 53 (no result: Yeast UUG start) | Rev-erbA confirm 41 | RORg DNA counter inactive
Fc1cccc2sc(Nc3nc4ccccc4s3)nc12	Rev-erbA mod 40 (no result: ERp5 block) | Rev-erbA confirm 35 | RORg DNA counter inactive
Fc1ccc2nc(Nc3nc4cc5c(cc4s3)OCCO5)sc2c1	Rev-erbA mod 32 (no result: ERp5 block) | Rev-erbA confirm 39 | RORg DNA counter inactive
O=C(NNc1nc2ccccc2s1)c1ccccc1F	none
Fc1ccc2nc(Nc3nc4cc5c(cc4s3)OCO5)sc2c1	none (no result: ERp5 block, Yeast UUG start)
Fc1ccc2nc(Nc3nc4c(F)cccc4s3)sc2c1	none (no result: ERp5 block, Yeast UUG start)
COCC(=O)N1CC(=O)N2[C@@H](CO)[C@H](c3ccc(C#CC4CCCCC4)cc3)[C@@H]2C1	none (no result: PDI inh, SMARCA2 activ, Yeast UUG start, Rev-erbA mod)
Cc1noc(C)c1NC(=O)N(C)C[C@@H]1Oc2ccc(NC(=O)Cn3cnnn3)cc2C(=O)N([C@@H](C)CO)C[C@@H]1C	none (no result: PDI inh, SMARCA2 activ, Rev-erbA mod)
Cc1cc(-c2ccccc2)[nH]c(=O)c1S(=O)(=O)c1ccccc1	none (no result: ERp5 block, GSIS activator)
Cc1cc(-c2ccccc2)[nH]c(=O)c1S(=O)(=O)c1ccc(Cl)cc1	Rev-erbA mod 51 (no result: ERp5 block, GSIS activator) | Rev-erbA confirm 21
CN1C(=O)c2cc(NC(=O)c3cccc(F)c3)ccc2OC[C@H]2O[C@@H](CC(=O)NC3CCC3)CC[C@@H]21	none (no result: PDI inh, SMARCA2 activ, ERp5 block, Yeast UUG start, Rev-erbA mod)
O=C(Nc1ccc(F)cc1)c1oc2ccccc2c1NC(=O)C1CCCC1	Rev-erbA mod 26 (no result: SMARCA2 activ, Yeast UUG start) | Rev-erbA confirm inactive
Oc1c(C=Nc2cccc3cccnc23)sc2ccccc12	Rev-erbA mod 26 (no result: PDI inh, ERp5 block, Yeast UUG start) | Rev-erbA confirm 36 | RORg DNA counter inactive
O=C(Cc1ccncc1)N1CC(=O)N2[C@H](CO)[C@H](c3ccc(C4=CCCC4)cc3)[C@@H]2C1	none (no result: PDI inh, SMARCA2 activ, Yeast UUG start, Rev-erbA mod)
COc1ccc(/C=N\NC(=O)c2ccc([N+](=O)[O-])cc2)cc1COc1c(F)c(F)cc(F)c1F	none
COc1ccc(/C=N\NC(=O)c2ccccc2[N+](=O)[O-])cc1COc1c(F)c(F)c(F)c(F)c1F	Rev-erbA mod 20 | Rev-erbA confirm inactive
O=C(Nc1cc(-c2nc3ccccc3s2)ccc1Cl)c1ccc2c(c1)OCO2	Rev-erbA mod 28 | Rev-erbA confirm inactive
CCN(CC)S(=O)(=O)c1ccc2[nH]cc(C(=O)NCCCN3CCCCC3C)c(=O)c2c1 (stereo not drawn)	Rev-erbA mod 27 (no result: ERp5 block, GSIS activator, Yeast UUG start) | Rev-erbA confirm inactive
CCCCCNC(=O)c1c[nH]c2ccc(S(=O)(=O)N3CCC4(CC3)OCCO4)cc2c1=O	Rev-erbA mod 38 (no result: Yeast UUG start) | Rev-erbA confirm 48 | RORg DNA counter inactive
CCN(CC)S(=O)(=O)c1ccc2[nH]cc(C(=O)NCCN3CCCCC3C)c(=O)c2c1 (stereo not drawn)	none (no result: ERp5 block)
O=C(Nc1ccc(Cl)cc1)N[C@H]1CC[C@@H](CCNS(=O)(=O)c2ccccc2F)O[C@H]1CO	none (no result: PDI inh, SMARCA2 activ, Rev-erbA mod)
O=C(C[C@H]1C=C[C@@H](NC(=O)c2ccc(F)cc2)[C@H](CO)O1)NCCc1ccccc1	none (no result: PDI inh, SMARCA2 activ, Rev-erbA mod)
C[C@@H]1CCCCO[C@H](CN(C)C(=O)Nc2ccc(F)cc2)[C@@H](C)CN([C@@H](C)CO)C(=O)c2cc(NC(=O)Nc3ccccc3)ccc2O1	none (no result: PDI inh, SMARCA2 activ, Rev-erbA mod)
COC(=O)c1c(NC2=NS(=O)(=O)c3ccccc32)sc2c1CCC(C(C)(C)C)C2 (stereo not drawn)	Rev-erbA mod 30 | Rev-erbA confirm 19
CCOC(=O)c1c(NC2=NS(=O)(=O)c3ccccc32)sc2c1CCC(C)C2 (stereo not drawn)	Rev-erbA mod 41 (no result: ERp5 block, Yeast UUG start) | Rev-erbA confirm inactive
CCCNC(=O)C[C@H]1CC[C@H]2[C@@H](COc3ccc(NC(=O)c4ccno4)cc3C(=O)N2C)O1	none (no result: PDI inh, SMARCA2 activ, Rev-erbA mod)
N=C(SC1CC(=O)N(c2ccc(F)cc2)C1=O)N1N=C(c2ccccc2)CC1c1ccccc1 (stereo not drawn)	Rev-erbA mod 19 (no result: Yeast UUG start) | Rev-erbA confirm inactive
Cc1cc(C)c(C)c(S(=O)(=O)N2CCSCC2)c1C	Rev-erbA mod 19 | Rev-erbA confirm inactive
COc1ccc2[nH]c3c(=O)n(Cc4ccc(C(=O)N5CCCCCC5)cc4)c(=S)[nH]c3c2c1	Rev-erbA mod 41 (no result: Yeast UUG start) | Rev-erbA confirm 29
COc1ccc2[nH]c3c(=O)n(Cc4ccc(C(=O)N5CCC(C(N)=O)CC5)cc4)c(=S)[nH]c3c2c1	none (no result: Yeast UUG start)
CO[C@@H]1CN(C)C(=O)c2ccc(NS(C)(=O)=O)cc2OC[C@H](C)N(CCC(F)(F)F)C[C@H]1C	none (no result: PDI inh, SMARCA2 activ, Rev-erbA mod)
O=C(Nc1nc2ccccc2n1Cc1ccc(Cl)cc1)c1ccco1	GSIS activator 48, Rev-erbA mod 28 (no result: ERp5 block, Yeast UUG start) | Rev-erbA confirm inactive
Cc1ccc(OCCn2c(NC(=O)c3ccco3)nc3ccccc32)cc1	Rev-erbA mod 30 (no result: ERp5 block, GSIS activator, Yeast UUG start) | Rev-erbA confirm inactive
COc1cccc(S(=O)(=O)Nc2ccc3c(c2)[C@@H]2C[C@H](CC(=O)NCC(F)(F)F)O[C@H](CO)[C@@H]2O3)c1	none (no result: PDI inh, SMARCA2 activ, Rev-erbA mod)
O=C(CN1C(=O)NC(Cc2ccccc2)C1=O)Nc1ccc(F)cc1 (stereo not drawn)	none (no result: ERp5 block, GSIS activator)
O=C(CN1C(=O)NC(Cc2ccccc2)C1=O)Nc1ccc(OC(F)(F)F)cc1 (stereo not drawn)	Rev-erbA mod 14 | Rev-erbA confirm inactive
Cc1cc(CN2CCOCC2)c(O)c(C2(C)CCCCC2)c1	Rev-erbA mod 18 (no result: ERp5 block, GSIS activator) | Rev-erbA confirm 24
O=C(C[C@@H]1CC[C@@H]2[C@H](COC[C@@H](O)CN2S(=O)(=O)c2cccc(F)c2)O1)Nc1ccccc1	none (no result: PDI inh, SMARCA2 activ, ERp5 block, Yeast UUG start, Rev-erbA mod)
C[C@@H]1CN([C@H](C)CO)C(=O)c2cc(NC(=O)Cn3cnnn3)ccc2O[C@@H]1CN(C)Cc1ccncc1	none (no result: PDI inh, SMARCA2 activ, Rev-erbA mod)
Cc1noc(C)c1NC(=O)Nc1cccc2c1O[C@H](CN(C)C(=O)Nc1ccc(C(F)(F)F)cc1)[C@H](C)CN([C@@H](C)CO)C2=O	none (no result: PDI inh, SMARCA2 activ, ERp5 block, Rev-erbA mod)
Cn1c(N)c(C(=O)COC(=O)C2(c3ccccc3F)CCCC2)c(=O)n(C)c1=O	Rev-erbA mod 19 (no result: ERp5 block, GSIS activator) | Rev-erbA confirm inactive
C[C@H](CO)N1C[C@H](C)[C@H](CN(C)S(=O)(=O)c2cccc(F)c2)Oc2ncc(C#CC3CC3)cc2C1=O	none (no result: PDI inh, SMARCA2 activ, Rev-erbA mod)

Screening data (PubChem BioAssay)
